The record followed here is patent US4499091A, “1-Amino (or substituted amino)-1,4-dihydro-4-oxo-6-fluoro-7-heterylquinoline-3-carboxylic acids and their use as antibacterial agents” (Sterling Drug Inc., priority 1983, dated 1985).

The subject of assay [1] is Streptococcus pyogenes C203. As to the kind of experiment: in vitro antibacterial activity, serial dilution (MIC). It counts as cell-based. To be noted: 18-20 hours static incubation, read-out: Minimal Inhibitory Concentration (MIC). As to the method: (§1) The in vitro antibacterial activity of the compounds of the invention was determined by conventional serial dilution procedures. Bacterial cultures were grown in tryptose phosphate broth or brain heart infusion broth (containing heat-inactivated normal horse serum for tests with S. pyogenes) overnight at 37° C. and subsequently diluted in double strength broth to provide bacterial inocula of about 2×10^5 cells/ml. Aqueous solutions of the compounds of the invention were prepared by dissolving the free acid form in 0.5N sodium hydroxide. The solutions were diluted with sterile distilled water to 1000 mcg/ml of compound in terms of the free acid. Serial two-fold dilutions of the compound stock solutions were prepared in water and 0.5 ml of each dilution was transferred to sets of tubes, one set for each bacterial inoculum.

Assay [2] deals with Staphylococcus aureus Smith. The assay is described as above. It counts as cell-based. To be noted: 18-20 hours static incubation, read-out: Minimal Inhibitory Concentration (MIC). Here is the method:
as §1

≈ marks a conversion by molar mass, not a printed value.

For the molecule `CNn1cc(C(=O)O)c(=O)c2cc(F)c(N3CCN(C)CC3)cc21` [Example 1, 6-Fluoro-1,4-dihydro-1-methylamino-7-(4-methyl-1-piperazinyl)-4-oxo-3-quinolinecarboxylic acid], the MIC in assay [1] was determined as 7.8 µg/mL (≈ 23.3 µM); in assay [2] it was 3.9 µg/mL (≈ 11.7 µM).
